A short description of the data set: Octanol–water partition, shake-flask method. Format: physicochemical. The following applies: 200 μM, n-octanol/water, 2 h mixing; SE in parentheses. On the procedure:
The shake-flask method was done using 2 mL Eppendorf tubes and three replicates. […] After mixing, aliquots of 500 μL were transferred to new Eppendorf tubes, and 500 μL of n-octanol was added that had been saturated with water. The solvent systems were mixed in a vortex mixer for 2 h, and then both the water and the n-octanol layers as well as the initial water solution were analyzed by UPLC–DAD using the shorter phenyl column (section 2.4). The chromatograms were integrated using TargetLynx software (version 4.2), and the octanol–water partition coefficient, log P, was calculated as the log10 of the ratio of area in n-octanol phase to the area in water phase. Recovery % was calculated by summing the areas in both phases and dividing the summation with the area measured from the initial water phase.

In the case of “epicatechin [Compound 16, reference compound]”, the KOW was 1.44 (0.01) and the “log P (log10KOW)” value is given as 0.16 (0.00).
